Results on 27 compounds are retold here after patent US20240173419A1, “CDK2 DEGRADERS AND USES THEREOF” (Kymera Therapeutics, Inc., priority 2022, published 2024).

A value given as a limit tells only on which side of the number the result lay.

The target in this assay is CDK2 (Homo sapiens, UniProt P24941). Briefly: CDK2 degradation in MKN1 cells (AlphaLISA). Conditions: for CDK2 degradation 14 h: Average Dmax %: 14 h incubation; for DC50: read-out: CDK2 degradation 14 h: Mean external-Abs DC50, 14 h incubation. How it is done: Degradation of CDK2 in MKN1 cells was measured using AlphaLISA technology (PerkinElmer ALSU-TCDK2-A10K). MKN1 cells were maintained in RPMI1640 medium containing 10% FBS+1× penn/strep. Cells were seeded in 96-well plates (Corning 3599) at a density of 2e4 cells per well in 80 μL of fresh complete growth medium. Cells were incubated overnight at 37° C., 5% CO2. Compounds were then added to the cell assay plates with a final top concentration of 10 μM in a 1:5 dilution series with a total of 11 doses (0.001 nM-10 μM). The final volume per well was 160 μL and the final DMSO concentration was 0.1%. Additionally, wells containing no cells and only complete growth medium were also maintained on the cell assay plates (‘no cell’ wells) and processed along with experimental wells. After 14 hour-incubation at 37° C., 5% CO2, the medium was removed and the cells were washed once with 100 μL of 1×PBS. Following removal of PBS, 40 μL of 1× Lysis Buffer containing 1× protease and phosphatase inhibitors (Roche 4693116001; Roche 4906837001) were added to each well. The cell assay plate was agitated on a plate shaker at 350 rpm for 10 minutes at room temperature. 10 μL of each cell lysate were transferred to a 384-well plate (PerkinElmer 6007290). 10 μL of control lysates (from PerkinElmer ALSU-TCDK2-A10K kit) were added to separate wells to generate a standard curve. Activation Buffer was prepared by diluting 25-fold in combined Reaction Buffer 1 and Reaction Buffer 2. Acceptor Beads were diluted 50-fold in combined Reaction Buffers. 5 μL of Acceptor Mix were added to each well. The plate was sealed with Topseal-Aadhesive film, covered with foil, and incubated in the dark for 1 hour at room temperature. Under subdued light, the Donor Beads were diluted 50-fold in Dilution Buffer. 5 μL of Donor Mix were added to each well under subdued light. The plate was sealed with Topseal-A adhesive film, covered with foil, and incubated in the dark for 1 hour at room temperature. Under subdued light, the plates were analyzed on an EnVision Microplate Reader (PerkinElmer Model 2009-0030). The average signal from ‘no cell’ wells was subtracted from the signal in experimental wells prior to calculating Alpha signal for test compounds and negative control (0.100 DMSO). The data were analyzed using Xlfit (v5.3. 1.3) and the dose-dependent CDK2 degradation data were fit using a four-parameter logistic model to calculate DC50.

As to `CC1CC(NS(=O)(=O)c2ccc(Nc3ncc(C(F)(F)F)c(N4CCCC(C)(O)C4)n3)c(F)c2)CCN1CC1CCN(c2ccc(C3CCC(=O)NC3=O)c(F)c2)CC1` (single isomer, unassigned), the “CDK2 degradation 14 h: Average Dmax %” value is “A (A (>75% o))” and the DC50 lay in the range of 0.1 to 0.5 µM.

`Cc1cc(S(=O)(=O)NCCCCCNC(=O)COc2ccc(C3CCC(=O)NC3=O)cc2)ccc1Nc1ncc2cc(Cl)c(=O)n(C3CCCC3)c2n1` (stereo not drawn): the “CDK2 degradation 14 h: Average Dmax %” value is “A (A (>75% o))” and the 50% degradation concentration (DC50) was 0.1 to 0.5 µM.

For the compound `Cc1cc(S(=O)(=O)NC2CC(CN3CCN(c4ccc(C5CCC(=O)NC5=O)c(Cl)c4)CC3)C2)ccc1Nc1ncc(C(F)(F)F)c(N2CCCC(C)(O)C2)n1` (single isomer, unassigned), the “CDK2 degradation 14 h: Average Dmax %” value is listed as “A (A (>75% o))” and the half-maximal degradation concentration (DC50) is less than 0.1 µM.

For `Cc1cc(S(=O)(=O)NC23CC(CN4CCN(c5ccc(C6CCC(=O)NC6=O)c(Cl)c5)CC4)(C2)C3)ccc1Nc1ncc(C(F)(F)F)c(N2CCC[C@](C)(O)C2)n1` (stereo partly drawn), the “CDK2 degradation 14 h: Average Dmax %” value was “A (A (>75% o))” and the DC50 is less than 0.1 µM.

On to `Cc1cc(S(=O)(=O)N[C@H]2CC[C@H](CN3CCN(c4ccc(C5CCC(=O)NC5=O)c(Cl)c4F)CC3)CC2)ccc1Nc1ncc(C(F)(F)F)c(N2CCC[C@](C)(O)C2)n1` (stereo partly drawn), for which the “CDK2 degradation 14 h: Average Dmax %” value is “A (A (>75% o))” and the DC50 is less than 0.1 µM.

`Cc1cc(S(=O)(=O)N[C@H]2C[C@H](N3CCN(CCOc4ccc(NC5CCC(=O)NC5=O)c(Cl)c4)CC3)C2)ccc1Nc1ncc(C(F)(F)F)c(N2CCC[C@](C)(O)C2)n1` (stereo partly drawn): the “CDK2 degradation 14 h: Average Dmax %” value was “C (C (>25% -50%))” and the DC50 was more than 1 µM.

For the compound `Cc1cc(S(=O)(=O)NCCCNC(=O)COc2ccc(C3CCC(=O)NC3=O)cc2)ccc1Nc1ncc2cc(Cl)c(=O)n(C3CCCC3)c2n1` (stereo not drawn), the “CDK2 degradation 14 h: Average Dmax %” value is reported as “B (B (>50% -75%))” and the DC50 is more than 1 µM.

With `Cc1cc(S(=O)(=O)C2CC3(CCN(CC4CCN(c5ccc6c(c5F)n(C)c(=O)n6C5CCC(=O)NC5=O)CC4)CC3)C2)ccc1Nc1ncc(C(F)(F)F)c(N2CC[C@H](C(C)(C)O)C2)n1` (stereo partly drawn), the “CDK2 degradation 14 h: Average Dmax %” value was “A (A (>75% o))” and the DC50 was less than 0.1 µM.

With `Cc1cc(S(=O)(=O)C2CC3(CCN(CC4CCN(c5ccc6c(c5F)n(C)c(=O)n6C5CCC(=O)NC5=O)CC4)CC3)C2)ccc1Nc1ncc2ccc(=O)n(C3CCCC3)c2n1` (stereo not drawn), the “CDK2 degradation 14 h: Average Dmax %” value is listed as “A (A (>75% o))” and the half-maximal degradation concentration (DC50) is less than 0.1 µM.

With `Cc1cc(S(=O)(=O)NC(C)COC2CC(CN3CCN(c4cccc5c4n(C)c(=O)n5C4CCC(=O)NC4=O)CC3)C2)ccc1Nc1ncc(C(F)(F)F)c(C2CCC(C)(O)CC2)n1` (stereo not drawn), the “CDK2 degradation 14 h: Average Dmax %” value is reported as “A (A (>75% o))” and the DC50 is less than 0.1 µM.

For `Cc1cc(S(=O)(=O)N[C@H]2CC[C@H](CN3CCN(c4ccc(C5CCC(=O)NC5=O)cc4F)CC3)CC2)ccc1Nc1ncc2c(n1)N([C@@H]1CCC[C@@H](O)C1)C(=O)C21CC1` (stereo partly drawn), the “CDK2 degradation 14 h: Average Dmax %” value is listed as “A (A (>75% o))” and the DC50 was less than 0.1 µM.

For the compound `Cc1cc(S(=O)(=O)N[C@H](C)CO[C@H]2CC[C@H](CN3CCN(c4ccc5c(c4)n(C)c(=O)n5C4CCC(=O)NC4=O)CC3)CC2)ccc1Nc1ncc(C(F)(F)F)c([C@H]2CC[C@@](C)(O)CC2)n1` (stereo partly drawn), the “CDK2 degradation 14 h: Average Dmax %” value is recorded as “A (A (>75% o))” and the DC50 was less than 0.1 µM.

For the compound `C[C@@]1(O)CCC[C@H]1n1c(=O)c(C(F)F)cc2cnc(NC3CCN(S(=O)(=O)CCCCCCNc4cccc5c4C(=O)N(C4CCC(=O)NC4=O)C5=O)CC3)nc21` (stereo partly drawn), the “CDK2 degradation 14 h: Average Dmax %” value is “B (B (>50% -75%))” and the half-maximal degradation concentration (DC50) is less than 0.1 µM.

Consider `Cc1cc(S(=O)(=O)CC2CN(C3CCN(CC4CCN(c5ccc6c(c5)n(C)c(=O)n6C5CCC(=O)NC5=O)CC4)CC3)C2)ccc1Nc1ncc2cc(Cl)c(=O)n(C(C)C)c2n1` (stereo not drawn), for which the “CDK2 degradation 14 h: Average Dmax %” value was “B (B (>50% -75%))” and the DC50 is more than 1 µM.

As for `Cc1cc(S(=O)(=O)NC2CC3(CCN(c4ccc(C5CCC(=O)NC5=O)c(Cl)c4)CC3)C2)ccc1Nc1ncc(C(F)(F)F)c(N2CCC[C@](C)(O)C2)n1` (stereo partly drawn), the “CDK2 degradation 14 h: Average Dmax %” value is “D (D (<25%))” and the DC50 is more than 1 µM.

Regarding `Cc1cc(S(=O)(=O)N[C@H]2C[C@H](N3CCN(CC#Cc4cccc(N5CCC(=O)NC5=O)c4C)CC3)C2)ccc1Nc1ncc(C(F)(F)F)c(N2CCC[C@](C)(O)C2)n1`, the “CDK2 degradation 14 h: Average Dmax %” value is “C (C (>25% -50%))” and the DC50 is more than 1 µM.

For the compound `Cc1cc(S(=O)(=O)N[C@H]2C[C@H](N3CCC(OCC#Cc4cccc(N5CCC(=O)NC5=O)c4C)CC3)C2)ccc1Nc1ncc(C(F)(F)F)c(N2CCC[C@](C)(O)C2)n1`, the “CDK2 degradation 14 h: Average Dmax %” value was “C (C (>25% -50%))” and the DC50 is more than 1 µM.

As to `Cc1cc(S(=O)(=O)NCCOCCOCC2CCN(c3ccc(N4CCC(=O)NC4=O)cc3)CC2)ccc1Nc1ncc2cc(Cl)c(=O)n(C3CCCC3)c2n1`, the “CDK2 degradation 14 h: Average Dmax %” value is “B (B (>50% -75%))” and the DC50 fell in the range of 0.1 to 0.5 µM.

For the compound `Cc1cc(S(=O)(=O)N[C@H]2CC[C@H](CN3CCC(c4ccc(C5CCC(=O)NC5=O)cc4)C3)CC2)ccc1Nc1ncc(C(F)(F)F)c(N2CCC[C@](C)(O)C2)n1` (stereo partly drawn), the “CDK2 degradation 14 h: Average Dmax %” value was “B (B (>50% -75%))” and the DC50 was more than 1 µM.

Consider `Cc1cc(S(=O)(=O)Nc2ccc(CN3CCN(c4ccc(C5CCC(=O)NC5=O)c(Cl)c4)CC3)cc2)ccc1Nc1ncc(C(F)(F)F)c(N2CCC[C@](C)(O)C2)n1` (stereo partly drawn), for which the “CDK2 degradation 14 h: Average Dmax %” value is on record as “B (B (>50% -75%))” and the DC50 was less than 0.1 µM.

With `Cc1cc(S(=O)(=O)NC23CCC(CN4CCN(c5ccc(C6CCC(=O)NC6=O)c(Cl)c5)CC4)(CC2)OC3)ccc1Nc1ncc(C(F)(F)F)c(N2CCC[C@](C)(O)C2)n1` (stereo partly drawn), the “CDK2 degradation 14 h: Average Dmax %” value is on record as “A (A (>75% o))” and the DC50 was less than 0.1 µM.

Regarding `Cc1cc(S(=O)(=O)N[C@H]2CC[C@H](N3CCN(c4ccc(C5CCC(=O)NC5=O)c(Cl)c4)CC3)CC2)ccc1Nc1ncc(C(F)(F)F)c(N2CCC[C@](C)(O)C2)n1` (stereo partly drawn), the “CDK2 degradation 14 h: Average Dmax %” value is reported as “C (C (>25% -50%))” and the DC50 is more than 1 µM.

For the compound `O=C1CCC(N2Cc3cc(N4CCN(Cc5cccc(S(=O)(=O)N6CCC(Nc7ncc8ccc(=O)n(C9CCCC9)c8n7)CC6)c5)CC4)c(F)cc3C2=O)C(=O)N1` (stereo not drawn), the “CDK2 degradation 14 h: Average Dmax %” value is “A (A (>75% o))” and the DC50 was less than 0.1 µM.

Regarding `Cc1cc(S(=O)(=O)NCCOCCNC(=O)c2ccc(Cl)c(N3CCC(=O)NC3=O)c2)ccc1Nc1ncc2cc(Cl)c(=O)n(C3CCCC3)c2n1`, the “CDK2 degradation 14 h: Average Dmax %” value was “D (D (<25%))” and the DC50 is more than 1 µM.

Turning to `Cc1cc(S(=O)(=O)N[C@H](C)CO[C@H]2CC[C@H](CN3CCN(c4cccc5c4n(C)c(=O)n5C4CCC(=O)NC4=O)CC3)CC2)ccc1Nc1ncc(C(F)(F)F)c([C@H]2CC[C@@](C)(O)CC2)n1` (stereo partly drawn), the “CDK2 degradation 14 h: Average Dmax %” value is “A (A (>75% o))” and the DC50 was less than 0.1 µM.

Regarding `Cc1cc(S(=O)(=O)C2CC3(CCN(CC4CCN(c5cccc6c5n(C)c(=O)n6C5CCC(=O)NC5=O)CC4)CC3)C2)ccc1Nc1ncc(C(F)(F)F)c(N2CCC[C@](C)(O)C2)n1` (stereo partly drawn), the “CDK2 degradation 14 h: Average Dmax %” value is “A (A (>75% o))” and the DC50 was less than 0.1 µM.

For `C[C@@]1(O)CCC[C@H]1n1c(=O)c(C(F)F)cc2cnc(NC3CCN(C(=O)CCCCCCCNc4cccc5c4C(=O)N(C4CCC(=O)NC4=O)C5=O)CC3)nc21` (stereo partly drawn), the “CDK2 degradation 14 h: Average Dmax %” value was “D (D (<25%))” and the 50% degradation concentration (DC50) was more than 1 µM.
